In one assay the target is T1, FGFR-3 (Homo sapiens, UniProt P22607).
T1 construct: human FGFR-3 from amino acids R397 to T806 as in NCBI/Protein entry NP_000133.1; purchased Proqinase 1068-0000-1; host or cells: SF9 insect cells (baculovirus)
Put plainly: FGFR-3 kinase assay (TR-FRET). In kind it is biochemical. The note with it: 10 μM ATP, 15 min pre-incubation; compounds of the invention (Table 2A). For orientation: In TR-FRET formats the signal depends on donor and acceptor labels being close together.

Chains of the proteins cited; added tags and fusions are not shown. Residues count along the entry.
UniProt P22607, 397-806: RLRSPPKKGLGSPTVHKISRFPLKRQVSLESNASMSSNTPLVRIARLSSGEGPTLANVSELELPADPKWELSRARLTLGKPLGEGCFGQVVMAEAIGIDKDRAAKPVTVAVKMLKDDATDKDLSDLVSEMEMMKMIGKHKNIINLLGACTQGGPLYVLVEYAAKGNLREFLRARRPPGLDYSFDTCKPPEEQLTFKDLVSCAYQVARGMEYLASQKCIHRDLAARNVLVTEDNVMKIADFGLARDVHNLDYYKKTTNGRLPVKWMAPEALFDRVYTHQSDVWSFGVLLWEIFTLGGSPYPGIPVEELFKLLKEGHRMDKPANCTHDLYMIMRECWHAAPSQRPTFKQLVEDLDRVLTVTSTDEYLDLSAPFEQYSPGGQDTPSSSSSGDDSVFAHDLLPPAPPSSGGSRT
UniProt P11362, 402-822: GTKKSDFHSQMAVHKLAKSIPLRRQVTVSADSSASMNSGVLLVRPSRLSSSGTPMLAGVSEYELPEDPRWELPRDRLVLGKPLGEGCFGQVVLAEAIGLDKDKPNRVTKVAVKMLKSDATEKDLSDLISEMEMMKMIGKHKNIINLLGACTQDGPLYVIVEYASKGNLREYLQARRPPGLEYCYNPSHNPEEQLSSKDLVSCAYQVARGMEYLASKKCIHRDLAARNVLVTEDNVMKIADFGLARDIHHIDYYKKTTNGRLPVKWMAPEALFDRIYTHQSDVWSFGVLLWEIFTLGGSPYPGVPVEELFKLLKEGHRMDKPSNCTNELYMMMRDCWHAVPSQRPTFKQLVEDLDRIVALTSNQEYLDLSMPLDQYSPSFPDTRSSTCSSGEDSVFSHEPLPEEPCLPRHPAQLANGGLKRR

The next assay deals with T2, FGFR-1 (Homo sapiens, UniProt P11362).
T2 construct: human FGFR-1 from amino acids G400 to R800 as in GenBank entry NM_015850; purchased Proqinase 0101-0000-1; host or cells: SF9 insect cells (baculovirus)
Put plainly: FGFR-1 high ATP kinase assay (TR-FRET). In kind it is biochemical. To be noted: 2 mM ATP, 15 min pre-incubation; compounds of the invention (Table 1A).

The structures appear in SMILES notation. Counter-ions that a name gives are not always drawn.

As usually defined, the IC50 is the concentration that inhibits the measured activity by half. A higher IC50 goes with weaker potency in that assay. In turn, `CCN(CC)Cc1c(-c2cc3cc(C)cc(OC)c3s2)c2c(N)ncnn2c1CN1CCNCC1` [Example 43, 6-[(Diethylamino)methyl]-5-(7-methoxy-5-methyl-1-benzothiophen-2-yl)-7-(piperazin-1-ylmethyl)pyrrolo[2,1-f][1,2,4]triazin-4-amine trihydrochloride] returned a 50% inhibitory concentration (IC50) at FGFR-3 of 32.4 nM.
On FGFR-1, `COc1cc(C)cc2cc(-c3c(CNCC(=O)O)c(CN4CCNCC4)n4ncnc(N)c34)sc12` [Example 48, N-{[4-Amino-5-(7-methoxy-5-methyl-1-benzothiophen-2-yl)-7-(piperazin-1-ylmethyl)pyrrolo[2,1-f]-[1,2,4]triazin-6-yl]methyl}glycine trihydrochloride] showed an IC50 of 12.8 nM.

(Values after US20220153745A1, “DISUBSTITUTED BENZOTHIENYL-PYRROLOTRIAZINES AND THEIR USE AS FGFR KINASE INHIBITORS” (Bayer Intellectual Property GmbH, priority 2011, published 2022).)
